By UniProt entry, the sequences of proteins in these tests, tags left out.
UniProt P35372, whole entry: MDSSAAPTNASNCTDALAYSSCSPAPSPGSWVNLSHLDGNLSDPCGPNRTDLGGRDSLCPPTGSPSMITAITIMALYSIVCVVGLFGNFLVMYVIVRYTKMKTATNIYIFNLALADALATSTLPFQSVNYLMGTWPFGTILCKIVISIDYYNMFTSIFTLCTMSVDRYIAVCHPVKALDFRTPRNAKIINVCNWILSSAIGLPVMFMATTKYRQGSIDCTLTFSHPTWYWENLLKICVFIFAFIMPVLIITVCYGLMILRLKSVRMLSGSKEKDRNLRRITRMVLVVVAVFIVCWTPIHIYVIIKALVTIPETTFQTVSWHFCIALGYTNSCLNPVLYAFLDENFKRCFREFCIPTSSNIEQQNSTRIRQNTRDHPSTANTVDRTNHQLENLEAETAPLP
UniProt P41146, whole entry: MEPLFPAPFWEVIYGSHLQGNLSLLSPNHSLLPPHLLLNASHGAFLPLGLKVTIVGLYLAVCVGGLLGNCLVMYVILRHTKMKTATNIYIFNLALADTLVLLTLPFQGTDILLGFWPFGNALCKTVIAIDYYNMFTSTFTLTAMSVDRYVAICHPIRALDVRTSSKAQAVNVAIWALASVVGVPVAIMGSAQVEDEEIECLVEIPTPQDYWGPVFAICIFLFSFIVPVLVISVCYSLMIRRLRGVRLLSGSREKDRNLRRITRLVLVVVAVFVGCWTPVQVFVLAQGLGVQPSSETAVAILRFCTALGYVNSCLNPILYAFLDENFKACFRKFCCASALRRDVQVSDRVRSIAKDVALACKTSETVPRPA

What follows are compounds tested against hMOPr (Homo sapiens, UniProt P35372) (assay: Opioid receptor affinity, radioligand binding ([3H]-DAMGO), CHO-K1 MOP receptor cell membrane). Settings: summary of the binding panel MOP/NOP/KOP/DOP.
`CC(C)[C@H]1CC[C@@H](N2CCC(n3c(=O)n(CCN(C)C)c4cc(Cl)c(Cl)cc43)CC2)CC1` was tested, and the “selectivity and affinity for MOP receptor and NOP receptor (in words)” value was “high selectivity and high affinity for MOP receptor and NOP receptor”.
For `O=c1n(CCN2CCOCC2)c2cc(Cl)c(Cl)cc2n1C1CCN(Cc2ccccc2Cl)CC1`, the “selectivity and affinity for MOP receptor and KOP receptor (in words)” value was “high selectivity and high affinity for MOP receptor and KOP receptor”.
In the case of `CN(C)C(=O)Cn1c(=O)n(C2CCN(Cc3ccc(F)cc3Cl)CC2)c2cc(Cl)c(Cl)cc21`, the “selectivity and affinity for MOP receptor and KOP receptor (in words)” value is reported as “high selectivity and high affinity for MOP receptor and KOP receptor”.
`CC(C)[C@H]1CC[C@@H](N2CCC(n3c(=O)n(CCN4CCOCC4)c4cc(Cl)c(Cl)cc43)CC2)CC1` was tested, and the “selectivity and affinity for MOP receptor and NOP receptor (in words)” value was “high selectivity and high affinity for MOP receptor and NOP receptor”.

The compounds below were run against hNOPr (Homo sapiens, UniProt P41146) (assay: Opioid receptor affinity, radioligand binding ([3H]-Nociceptin), HEK293-NOP receptor cell membrane). Settings: read-out: Opioid receptor affinity Ki hNOPr; [3H]-Nociceptin 0.5 nM.
`O=C1N(CCN2CCOCC2)Cc2cc(Cl)c(Cl)cc2N1C1CCN(Cc2ccc(F)cc2Cl)CC1` was tested, and the Ki was 10.4 nM.
Compound `O=C1CCCN1CCn1c(=O)n(C2CCN(Cc3ccccc3Cl)CC2)c2cc(Cl)c(Cl)cc21` has a Ki of 3.63 nM.
Work on `CCC1CCC(N2CCC(n3c(=O)n(CCN4CCOCC4)c4cc(Cl)c(Cl)cc43)CC2)CC1` (stereo not shown) yielded a Ki of 29.4 nM.
`O=c1n(CCN2CCOCC2)c2cc(F)c(Cl)cc2n1C1CCN(Cc2ccc(F)cc2Cl)CC1` gave a Ki of 46.6 nM.
For `Cc1ccccc1CN1CCC(n2c(=O)n(CCN3CCOCC3)c3cc(Cl)c(Cl)cc32)CC1`, the Ki was 20.9 nM.
`CC(C)C1CCC(N2CCC(n3c(=O)n(CCN4CCOCC4)c4cc(Cl)c(Cl)cc43)CC2)CC1` (stereo not shown) was tested, and the Ki was 58.5 nM.
`COc1cc(Cl)ccc1CN1CCC(n2c(=O)n(CCN3CCOCC3)c3cc(Cl)c(Cl)cc32)CC1` gave a Ki of 52.5 nM.
Compound `O=c1n(CCN2CCOCC2)c2cc(Cl)c(F)cc2n1C1CCN(Cc2ccc(F)cc2Cl)CC1` has a Ki of 18.1 nM.
`CC(C)C1CCC(N2CCC(n3c(=O)n(CCN4CCOCC4)c4cc(F)c(Cl)cc43)CC2)CC1` (stereo not shown) was tested, and the Ki was 67.9 nM.
With `O=c1n(CCN2CCCCC2)c2cc(Cl)c(Cl)cc2n1C1CCN(Cc2ccc(F)cc2Cl)CC1` the Ki was 15.1 nM.
`O=c1n(CCN2CCOCC2)c2cc(Cl)c(Cl)cc2n1C1CCN(Cc2ccc(Cl)s2)CC1` gave a Ki of 518 nM.
`O=c1n(CCN2CCOCC2)c2cc(Cl)c(Cl)cc2n1C1CCN(Cc2ccc(Cl)cc2F)CC1` was tested, and the Ki was 211 nM.
In the case of `O=c1n(CCN2CCOCC2)c2cc(Cl)c(Cl)cc2n1C1CCN(Cc2ccc(F)cc2Cl)CC1`, the Ki is reported as 24.5 nM.
Work on `CC(C)[C@H]1CC[C@@H](N2CCC(n3c(=O)n(CCN4CCOCC4)c4ccc(F)cc43)CC2)CC1` yielded a Ki of 16.5 nM.
With `CC(C)[C@H]1CC[C@@H](N2CCC(n3c(=O)n(CCN4CCOCC4)c4cc(Cl)ccc43)CC2)CC1` the Ki was 167 nM.
In the case of `CC(C)C1CCC(N2CCC(n3c(=O)n(CCN4CCOCC4)c4cc(F)c(F)cc43)CC2)CC1` (stereo not shown), the Ki is reported as 38.9 nM.
For `CC(=O)N1CCN(CCn2c(=O)n(C3CCN(Cc4ccc(F)cc4Cl)CC3)c3cc(Cl)c(Cl)cc32)CC1`, the Ki was 19.8 nM.
With `O=c1n(CCN2CCOCC2)c2cc(Cl)c(Cl)cc2n1C1CCN(Cc2ccc(F)cc2F)CC1` the Ki was 98.1 nM.
Compound `O=c1n(CCN2CC3(COC3)C2)c2cc(Cl)c(Cl)cc2n1C1CCN(Cc2ccc(F)cc2Cl)CC1` has a Ki of 7.1 nM.
Work on `O=c1n(CCN2CCCC2)c2cc(Cl)c(Cl)cc2n1C1CCN(Cc2ccc(F)cc2Cl)CC1` yielded a Ki of 8.63 nM.
`Cc1ccc(CN2CCC(n3c(=O)n(CCN4CCOCC4)c4cc(Cl)c(Cl)cc43)CC2)c(C)c1` showed a Ki of 62.4 nM.
In the case of `Cc1ccc(CN2CCC(n3c(=O)n(CCN4CCOCC4)c4cc(Cl)c(Cl)cc43)CC2)c(Cl)c1`, the Ki is reported as 39.6 nM.
`O=c1n(CCN2CCOCC2)c2cc(Cl)c(Cl)cc2n1C1CCN(C2Cc3ccccc3C2)CC1` showed a Ki of 17.5 nM.
For `Cc1cc(Cl)ccc1CN1CCC(n2c(=O)n(CCN3CCOCC3)c3cc(Cl)c(Cl)cc32)CC1`, the Ki was 136 nM.
`CN1CCN(CCn2c(=O)n(C3CCN(Cc4ccc(F)cc4Cl)CC3)c3cc(Cl)c(Cl)cc32)CC1` was tested, and the Ki was 20.2 nM.
`CN(C)C(=O)Cn1c(=O)n(C2CCN(Cc3ccc(F)cc3)CC2)c2cc(Cl)c(Cl)cc21` showed a Ki of 78.5 nM.
With `CC(C)[C@H]1CC[C@@H](N2CCC(n3c(=O)n(CCN(C)C)c4cc(Cl)c(Cl)cc43)CC2)CC1` the Ki was 4.12 nM.
For `CC(C)(C)C1CCC(N2CCC(n3c(=O)n(CCN4CCOCC4)c4cc(Cl)c(Cl)cc43)CC2)CC1` (stereo not shown), the Ki was 118 nM.
`O=c1n(CCN2CCOCC2)c2cc(Cl)c(Cl)cc2n1C1CCN(Cc2ccccc2Cl)CC1` gave a Ki of 38.1 nM.
In the case of `CN(C)CCn1c(=O)n(C2CCN(Cc3ccc(F)cc3Cl)CC2)c2cc(Cl)c(Cl)cc21`, the Ki is reported as 5.7 nM.
Compound `Cc1cc(F)ccc1CN1CCC(n2c(=O)n(CCN3CCOCC3)c3cc(Cl)c(Cl)cc32)CC1` has a Ki of 75.2 nM.
`CN(C)C(=O)Cn1c(=O)n(C2CCN(Cc3ccc(F)cc3Cl)CC2)c2cc(Cl)c(Cl)cc21` was tested, and the Ki was 67.9 nM.
Work on `O=c1n(CC2CO2)c2cc(Cl)c(Cl)cc2n1C1CCN(Cc2ccccc2F)CC1` (stereo not shown) yielded a Ki of 9.33 nM.
`CC(C)[C@H]1CC[C@@H](N2CCC(n3c(=O)n(CCN4CCOCC4)c4cc(Cl)c(Cl)cc43)CC2)CC1` gave a Ki of 38.1 nM.
`O=c1n(CCN2CCOCC2)c2cc(Cl)c(Cl)cc2n1C1CCN(Cc2ccccc2F)CC1` was tested, and the Ki was 32.7 nM.
`Cc1cc(C)c(CN2CCC(n3c(=O)n(CCN4CCOCC4)c4cc(Cl)c(Cl)cc43)CC2)c(C)c1` gave a Ki of 559 nM.
Compound `Cc1ccc2c(c1)n(CCN1CCOCC1)c(=O)n2C1CCN(Cc2ccccc2Cl)CC1` has a Ki of 128 nM.
In the case of `O=c1n(CCN2CCS(=O)(=O)CC2)c2cc(Cl)c(Cl)cc2n1C1CCN(Cc2ccc(F)cc2Cl)CC1`, the Ki is reported as 14.5 nM.
Work on `O=c1n(CCN2CCOCC2)c2cc(F)c(F)cc2n1C1CCN(Cc2ccc(F)cc2Cl)CC1` yielded a Ki of 61.2 nM.
For `O=c1n(CCN2CCOCC2)c2cc(Cl)c(Cl)cc2n1C1CCN(Cc2ccc(Cl)cc2)CC1`, the Ki was 398 nM.
In the case of `O=c1n(CCN2CCOCC2)c2cc(Cl)c(Cl)cc2n1C1CCN(Cc2ccc(Cl)cc2Cl)CC1`, the Ki is reported as 53.4 nM.
For `CN(C)CCn1c(=O)n(C2CCN(Cc3ccc(F)cc3)CC2)c2cc(Cl)c(Cl)cc21`, the Ki was 42.5 nM.
In the case of `CC(C)C1CCC(N2CCC(n3c(=O)n(CCN4CCOCC4)c4cc(Cl)c(F)cc43)CC2)CC1` (stereo not shown), the Ki is reported as 82.8 nM.
`O=C1CN(CCn2c(=O)n(C3CCN(Cc4ccc(F)cc4Cl)CC3)c3cc(Cl)c(Cl)cc32)CCN1` gave a Ki of 13.6 nM.
In the case of `O=c1n(CCN2CCOCC2)c2ccc(F)cc2n1C1CCN(Cc2ccccc2Cl)CC1`, the Ki is reported as 73.4 nM.
